Sequences of proteins named here, by UniProt entry; tags and fusion partners are left off.
UniProt O75116, whole entry, species assumed: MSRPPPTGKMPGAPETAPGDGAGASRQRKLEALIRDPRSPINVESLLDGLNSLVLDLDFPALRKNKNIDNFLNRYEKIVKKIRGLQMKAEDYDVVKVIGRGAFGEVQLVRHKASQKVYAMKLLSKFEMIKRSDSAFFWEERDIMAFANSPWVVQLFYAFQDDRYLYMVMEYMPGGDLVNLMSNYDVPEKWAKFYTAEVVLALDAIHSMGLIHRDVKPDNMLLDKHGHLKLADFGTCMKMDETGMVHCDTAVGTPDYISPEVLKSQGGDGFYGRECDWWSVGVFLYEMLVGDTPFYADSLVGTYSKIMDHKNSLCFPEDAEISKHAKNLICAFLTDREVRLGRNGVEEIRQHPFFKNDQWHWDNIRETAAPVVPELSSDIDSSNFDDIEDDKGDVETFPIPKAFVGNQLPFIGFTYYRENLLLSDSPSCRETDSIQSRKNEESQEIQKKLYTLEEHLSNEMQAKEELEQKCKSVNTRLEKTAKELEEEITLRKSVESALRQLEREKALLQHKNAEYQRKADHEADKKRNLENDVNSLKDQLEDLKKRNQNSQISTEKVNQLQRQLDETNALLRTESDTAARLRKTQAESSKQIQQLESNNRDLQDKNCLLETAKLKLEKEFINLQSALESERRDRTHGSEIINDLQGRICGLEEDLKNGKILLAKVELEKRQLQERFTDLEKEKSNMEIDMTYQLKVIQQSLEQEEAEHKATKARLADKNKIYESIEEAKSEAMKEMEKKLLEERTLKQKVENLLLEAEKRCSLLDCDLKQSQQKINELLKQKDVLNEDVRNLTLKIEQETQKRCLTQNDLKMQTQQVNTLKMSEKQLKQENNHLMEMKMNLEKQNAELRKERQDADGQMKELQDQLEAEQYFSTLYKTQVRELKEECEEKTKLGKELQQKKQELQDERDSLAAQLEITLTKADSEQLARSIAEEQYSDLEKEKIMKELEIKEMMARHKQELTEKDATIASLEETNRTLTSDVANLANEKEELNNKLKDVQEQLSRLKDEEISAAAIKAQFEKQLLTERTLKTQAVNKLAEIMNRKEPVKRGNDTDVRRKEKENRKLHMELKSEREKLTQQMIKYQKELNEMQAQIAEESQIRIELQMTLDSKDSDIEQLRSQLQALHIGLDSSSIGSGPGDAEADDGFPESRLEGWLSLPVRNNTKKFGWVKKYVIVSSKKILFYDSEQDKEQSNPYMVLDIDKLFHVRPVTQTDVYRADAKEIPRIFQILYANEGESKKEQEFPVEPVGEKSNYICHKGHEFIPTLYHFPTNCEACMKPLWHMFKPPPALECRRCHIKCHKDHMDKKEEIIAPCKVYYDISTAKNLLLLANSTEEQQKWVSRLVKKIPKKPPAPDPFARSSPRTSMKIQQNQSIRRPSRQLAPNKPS

According to patent US20190292189A1, “LIM KINASE INHIBITORS” (VIRONGY, LLC, priority 2016, published 2019):

Tests used:
[1] = target: ROCK-II (Homo sapiens, UniProt O75116); experiment: ROCK-II biochemical counter-screen; settings: based on IC50 values, ROCK-II vs Limk1
[2] = test system: cofilin phosphorylation in A7r5 cells; experiment: In-cell Western assay of cofilin phosphorylation in A7r5 cells; type: cell-based
Description: A7r5 (15,000 cells/well) were plated in a clear-bottomed Packard View black 96-well plate in 100 μl of 10% FBS DMEM:F12 medium and were allowed to attach overnight. The next day, the cells were serum starved in 1% FBS DMEM medium for 2 hr and then treated with the compounds for 1 hr. […] Next day, they were washed twice with PBS-0.1% Tween 20 (PBST) washing solution for 5 min each at room temperature on the orbital shaker, followed by one wash with Licor Blocking Buffer containing 0.05% Tween-20 for 5 min on the shaker at RT. The cells were then incubated with secondary antibody goat anti-rabbit IR800 (1:500 dilution) for 1 hr at RT in the dark (covered the plate with foil) in Licor blocking buffer-containing Tween-20. Following this, cells were washed twice with PBST for 5 min each at room temperature and then once with Licor blocking buffer-containing 0.05% Tween-20. The wells were then incubated with ToPro 3 stain (nucleic acid staining), diluted 1:4000 in Licor blocking buffer or Licor blocking buffer with 0.05% Tween-20 for 30 min at room temperature in the dark. Finally the plates were washed twice with PBS and analyzed using the Odyssey LICOR Infrared Scanner.

[3] = IOP lowering on rat eyes, topical dosing; type: in vivo, Brown Norway rats; settings: 50 μg topical; at 4 h, compared to the vehicle

Row | Compound | selectivity over ROCK-II [1] | IC50 [2] | other results
1 | Cc1c[nH]c2ncnc(-c3ccc(NC(=O)Nc4cccc(C(=O)NC(C)C)c4)c(F)c3)c12 [Compound 7k, 3-(3-(2-Fluoro-4-(5-methyl-7H-pyrrolo[2,3-d]pyrimidin-4-yl)phenyl)ureido)-N-isopropylbenzamide] | 43 fold |  | 
2 | Cc1ccc(N(CCO)C(=O)Nc2ccc(-c3ncnc4[nH]cc(C)c34)cc2)cc1 [Compound 18k, 1-(2-Hydroxyethyl)-3-(4-(5-methyl-7H-pyrrolo[2,3-d]pyrimidin-4-yl)phenyl)-1-p-tolylurea] |  | 190 nM | 
3 | COc1ccc(N(CCO)C(=O)Nc2ccc(-c3ncnc4[nH]cc(C)c34)cc2)cc1 [Compound 18n, 1-(2-hydroxyethyl)-1-(4-methoxyphenyl)-3-(4-(5-methyl-7H-pyrrolo[2,3-d]pyrimidin-4-yl)phenyl)urea] |  | 730 nM | 
4 | Cc1c[nH]c2ncnc(-c3ccc(NC(=O)N(CCN(C)C)c4ccc(Cl)cc4)cc3)c12 [Compound 18r, 1-(4-Chlorophenyl)-1-(2-(dimethylamino)ethyl)-3-(4-(5-methyl-7H-pyrrolo[2,3-d]pyrimidin-4-yl)phenyl)urea] | > 500 fold |  | 
5 | Cc1[nH]c2ncnc(-c3ccc(NC(=O)N(CCN(C)C)c4ccc(Cl)cc4)c(F)c3)c2c1C [Compound 18w, 1-(4-Chlorophenyl)-3-(4-(5,6-dimethyl-7H-pyrrolo[2,3-d]pyrimidin-4-yl)-2-fluorophenyl)-1-(2-(dimethylamino)ethyl)urea] |  |  | IOP-lowering effect [3]: significant decreases in IOP
